The chains behind the UniProt entries cited, without tags or fusion partners. Residues count along the entry.
UniProt Q14833, 33-912 limits assumed: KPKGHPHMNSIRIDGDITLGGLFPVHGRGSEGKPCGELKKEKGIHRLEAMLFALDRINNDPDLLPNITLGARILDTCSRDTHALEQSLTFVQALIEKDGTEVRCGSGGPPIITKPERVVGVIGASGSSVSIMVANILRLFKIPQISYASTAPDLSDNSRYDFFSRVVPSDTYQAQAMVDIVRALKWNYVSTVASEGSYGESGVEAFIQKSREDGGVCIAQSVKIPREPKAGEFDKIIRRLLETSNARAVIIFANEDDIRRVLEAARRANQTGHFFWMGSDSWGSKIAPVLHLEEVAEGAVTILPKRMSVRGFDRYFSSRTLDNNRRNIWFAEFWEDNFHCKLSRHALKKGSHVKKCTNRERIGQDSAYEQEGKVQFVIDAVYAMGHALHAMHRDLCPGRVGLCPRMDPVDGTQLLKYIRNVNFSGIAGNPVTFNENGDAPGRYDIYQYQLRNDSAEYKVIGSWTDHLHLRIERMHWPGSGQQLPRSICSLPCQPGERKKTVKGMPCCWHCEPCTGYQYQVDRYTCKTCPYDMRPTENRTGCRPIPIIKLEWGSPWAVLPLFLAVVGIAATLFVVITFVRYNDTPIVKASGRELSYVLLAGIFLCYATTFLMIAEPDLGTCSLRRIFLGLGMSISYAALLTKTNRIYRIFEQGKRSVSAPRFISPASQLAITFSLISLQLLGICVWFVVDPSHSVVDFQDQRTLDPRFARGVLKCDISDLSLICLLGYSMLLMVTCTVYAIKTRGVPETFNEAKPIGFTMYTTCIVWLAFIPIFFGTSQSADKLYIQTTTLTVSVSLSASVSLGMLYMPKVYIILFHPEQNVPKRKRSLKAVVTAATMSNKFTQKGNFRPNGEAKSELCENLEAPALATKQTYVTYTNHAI

In article PMC8667925, “New 1,2,4-oxadiazole derivatives with positive mGlu4 receptor modulation activity and antipsychotic-like properties” (Journal of Enzyme Inhibition and Medicinal Chemistry, 2021):

Target: mGlu4 receptor (Homo sapiens, UniProt Q14833)
Experiment: forskolin-stimulated cAMP assay, PAM mode (EC20 of L-Glu), T-REx 293 cells
Settings: SEM where given
Procedure: The activity of the compounds was assessed in vitro in a forskolin-stimulated cAMP assay in T-REx 293 cells expressing human mGlu4 receptors in the presence of an EC20 concentration of L-Glu; a PAM was identified if it potentiated cAMP inhibition by the Gi/o-dependent pathway of mGlu4 receptor activation; i.e. if it was able to produce a leftward shift in the potency of the endogenous agonist.
Determination of the intracellular cAMP through a homogeneous time-resolved fluorescence (HTRF) cAMP dynamic 2 kit from Cisbio (Codolet, France) was described previously by Chruścicka et al.[91]. Briefly, cells were grown in DMEM supplemented with 10% foetal bovine serum (FBS) (tetracycline free). Forty-eight hours before the experiments, mGlu receptor expression was induced by the addition of 0.75 µg/mL tetracycline. Twenty hours before the experiment, FBS and L-Glu were removed from the medium. Thereafter, the cells were scraped and centrifuged. A cell pellet was suspended in Hanks-HEPES (130 mM NaCl, 5.4 mM KCl, 1.8 mM CaCl2, 0.8 mM MgSO4, 0.9 mM NaH2PO4, 20 mM HEPES, and 3.25 mM glucose; pH 7.4). Then, the cell suspension was incubated in the presence of 10 µM forskolin (or 3 µM forskolin for mGlu7 receptor), the agonist L-glutamate and a compound for 5 min. Next, 10 µl of the cell suspension was mixed with 5 µl of cAMP-d2 conjugate and 5 µL of anti-cAMP cryptate conjugate. After 1 h of incubation at rt, the fluorescence at 620 nm and 665 nm was read (Tecan Infinite M1000). The results were calculated as the 665 nm/620 nm ratio multiplied by 10^4. Each sample was prepared in triplicate.
Statistical calculations were performed using GraphPad Prism 5.04 software (GraphPad Software, La Jolla, CA, USA). The curves were fitted to a 3-parametric logistic equation, allowing for the determination of EC50 values. Each data point was analysed in triplicate.

Compound: COc1cc(NC(=O)c2ncccc2F)ccc1-c1noc(-c2ccccc2Cl)n1
- EC50 (PAM mode, EC20 (3 µM) L-Glu, T-REx 293 cells expressing human mGlu4 receptor): 780 nM
- GluMax (PAM mode, human mGlu4): 135%
- Fold shift of L-Glu dose-response curve (in the presence of 10 µM of compound): 6.2
